This is an account of results in ChEMBL document CHEMBL3991945, “TASPASE1 inhibitors and their uses” (2013).

This experiment addresses T1, Threonine aspartase 1 (Homo sapiens) (UniProt Q9H6P5).
T1 sequence (whole entry): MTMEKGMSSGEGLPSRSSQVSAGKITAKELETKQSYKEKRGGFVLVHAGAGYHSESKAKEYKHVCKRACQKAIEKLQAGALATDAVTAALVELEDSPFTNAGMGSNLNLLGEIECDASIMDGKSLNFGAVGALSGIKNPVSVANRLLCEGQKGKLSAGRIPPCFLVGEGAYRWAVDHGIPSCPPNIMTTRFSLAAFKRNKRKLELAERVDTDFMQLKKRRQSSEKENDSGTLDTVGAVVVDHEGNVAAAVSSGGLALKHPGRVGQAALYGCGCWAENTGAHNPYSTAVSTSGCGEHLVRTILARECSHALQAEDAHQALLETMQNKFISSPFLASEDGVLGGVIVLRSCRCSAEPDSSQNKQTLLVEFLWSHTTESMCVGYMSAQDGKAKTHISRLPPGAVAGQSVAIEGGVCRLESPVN
Particulars: 0.1 to 250 uM.

Calls of active or inactive are those of the source. The rule behind the calls is not given here.

For the compound `CC(C)C[C@H](NC(=O)[C@H](Cc1ccccc1)NC(=O)c1cnccn1)B(O)O`, the inhibition result was “inactive”.
